The results in this text go back to ChEMBL document CHEMBL1145728, “Structure--activity relationships of the peptide deformylase inhibitor BB-3497: modification of the P2' and P3' side chains” (Bioorg Med Chem Lett, 2003).

This test deals with T1, Peptide deformylase (Escherichia coli, UniProt Q9JN24).
T1 sequence (Q9JN24 whole entry): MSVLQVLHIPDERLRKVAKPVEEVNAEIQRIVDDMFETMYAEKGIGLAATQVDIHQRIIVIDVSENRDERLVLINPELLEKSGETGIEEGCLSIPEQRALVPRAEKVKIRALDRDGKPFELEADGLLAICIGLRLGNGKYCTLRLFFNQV
Nature of the test: Inhibition concentration against Escherichia coli peptide deformylase.

The structures appear in SMILES notation.

The IC50 is the concentration needed to halve the response being measured. A lower IC50 goes with greater potency. Turning to `CCCC[C@H](CN(O)C=O)C(=O)N[C@H](C(=O)N1CCCC2CCCCC21)C(C)(C)C` (some centres not stated), the IC50 was determined as 40 nM.
As for `CCCC[C@H](CN(O)C=O)C(=O)N[C@@H](Cc1ccccc1)C(=O)N(C)C`, it took 10 nM to reach half-maximal inhibition (IC50).
